# How the values were obtained:
# BT474 tumor spheroid = experiment: Inhibition of BT474 three-dimensional tumor spheroid; type: cell-based; conditions: 0.02 nM to 100 nM, observed after 2 weeks
# NCI-N87 xenograft = experiment: Anticancer effect in NCI-N87 xenograft animal model; type: in vivo, nude mice; conditions: trastuzumab 5 mg/kg twice per week, intravenously
# Procedure: After the NCI-N87 cell line in which the antigen of trastuzumab was expressed was xenografted into nude mice, each of trastuzumab and trastuzumab-glucuronide-Compound 2 [ADC (DS-24)] were administered intravenously, followed by observation on anticancer activity. Here, trastuzumab was administered at 5 mg/kg twice per week, and ADC (DS-24) was administered once at a dose of 1 mg/kg and 5 mg/kg.
substance,measurement,setting,value
trastuzumab,IC50,BT474 tumor spheroid,18.2 nM
same,tumor formation inhibition,NCI-N87 xenograft,"a certain degree of tumor formation inhibition, which was not significant"

# From patent US11938115B2, “Benzoselenophene-based compound, pharmaceutical composition containing same, and antibody-drug conjugate” (priority 2020, dated 2024)
